Molecular target: T1, Son of sevenless homolog 1 (Homo sapiens) (UniProt Q07889)
T1 sequence (whole entry): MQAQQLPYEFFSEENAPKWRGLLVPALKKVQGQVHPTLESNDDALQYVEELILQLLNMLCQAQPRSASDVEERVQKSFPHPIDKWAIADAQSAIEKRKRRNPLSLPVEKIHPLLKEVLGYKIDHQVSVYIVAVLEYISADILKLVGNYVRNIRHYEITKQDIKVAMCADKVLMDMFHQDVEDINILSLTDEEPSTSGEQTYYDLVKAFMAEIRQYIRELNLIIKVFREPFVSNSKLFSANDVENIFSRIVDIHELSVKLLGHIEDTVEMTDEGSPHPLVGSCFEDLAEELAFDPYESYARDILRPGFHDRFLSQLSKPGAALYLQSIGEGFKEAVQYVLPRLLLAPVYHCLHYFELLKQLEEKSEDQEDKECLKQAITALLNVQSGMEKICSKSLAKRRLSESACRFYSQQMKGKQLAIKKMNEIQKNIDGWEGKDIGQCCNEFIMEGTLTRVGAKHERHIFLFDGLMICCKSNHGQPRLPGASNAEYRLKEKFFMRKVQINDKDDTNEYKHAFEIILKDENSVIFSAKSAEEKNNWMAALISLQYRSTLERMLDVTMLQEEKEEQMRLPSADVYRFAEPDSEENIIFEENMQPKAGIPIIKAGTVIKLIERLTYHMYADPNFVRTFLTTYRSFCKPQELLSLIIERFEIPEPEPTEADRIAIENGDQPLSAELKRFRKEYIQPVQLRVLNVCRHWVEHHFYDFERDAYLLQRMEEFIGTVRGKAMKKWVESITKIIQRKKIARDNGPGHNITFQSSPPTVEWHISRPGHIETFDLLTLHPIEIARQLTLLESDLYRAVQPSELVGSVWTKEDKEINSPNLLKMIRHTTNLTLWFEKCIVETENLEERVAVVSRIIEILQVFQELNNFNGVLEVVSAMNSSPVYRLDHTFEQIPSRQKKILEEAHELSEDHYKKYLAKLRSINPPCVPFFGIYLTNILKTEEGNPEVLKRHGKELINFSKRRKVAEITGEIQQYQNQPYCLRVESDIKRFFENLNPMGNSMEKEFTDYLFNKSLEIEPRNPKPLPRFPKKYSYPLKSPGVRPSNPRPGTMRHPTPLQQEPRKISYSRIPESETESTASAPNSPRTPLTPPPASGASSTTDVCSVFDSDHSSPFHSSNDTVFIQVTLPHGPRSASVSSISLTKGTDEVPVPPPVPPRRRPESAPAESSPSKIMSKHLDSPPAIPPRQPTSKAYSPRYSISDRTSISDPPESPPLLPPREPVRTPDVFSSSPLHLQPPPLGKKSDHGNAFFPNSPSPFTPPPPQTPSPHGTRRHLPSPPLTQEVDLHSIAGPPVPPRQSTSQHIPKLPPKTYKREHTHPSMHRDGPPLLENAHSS
Assay: Inhibition of SOS1 (unknown origin) at 500 nM

CNCc1ccccc1-c1csc([C@@H](C)Nc2nc(C)nc3cc(OC)c(OC)cc23)c1 [BAY-293]
inhibition: 99.7%

— ChEMBL document CHEMBL5257075, “Design, synthesis and biological evaluation of quinazoline SOS1 inhibitors” (Bioorg Med Chem Lett, 2023)
